scFv variants of Ab-91 (heavy chain) against a SARS-CoV-2 spike peptide

Target peptide (SARS-CoV-2 spike, HR2 region): PDVDLGDISGINAS

The variants keep the light chain, the linker and the frameworks of Ab-91 (scFv order VL, a (GGGGS)3 linker, VH).
VL: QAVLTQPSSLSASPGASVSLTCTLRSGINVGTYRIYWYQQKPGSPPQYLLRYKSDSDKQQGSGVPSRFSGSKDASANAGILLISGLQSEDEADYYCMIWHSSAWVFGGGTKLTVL
VH: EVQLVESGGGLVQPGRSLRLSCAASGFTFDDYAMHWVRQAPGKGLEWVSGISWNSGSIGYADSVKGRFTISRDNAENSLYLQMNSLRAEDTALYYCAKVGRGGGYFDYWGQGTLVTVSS

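In library AAYL51, one, two or three CDR residues were substituted; doubles and triples were drawn at random. In AlphaSeq, yeast of one mating type display the scFv and yeast of the other type display the target. After mating in shaken culture at 30 °C for 16 h, diploids were selected and their barcode pairs sequenced. A regression on co-assayed BCL2-family reference pairs converts the normalised counts of each replicate to an apparent Kd. The assay was run in three technical replicates.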

Variants are written as CDR1, CDR2 and CDR3 of the heavy chain (limits as in the source). Parent: GFTFDDYAMH, GISWNSGSIGYADSVK, VGRGGGYFDY.
Every variant below is changed at D31 of the VH (sequential numbering).
Values are apparent Kd, the geometric mean of the replicates that gave a signal; lower means stronger binding.
A pair that was not seen in any replicate is written "nd"; this usually means weak binding, but a binder can also be missed.
Nonspecific signal, from three strains lacking the peptide, appeared in 21% of pairings of library AAYL51, centred on 34 µM (5% of these signals below 1.8 µM); values are not corrected for it.

- GFTGDSYAMD / GISWNSGSIGYADSVK / VGRGGGYFDY -> nd (0 of 3 replicates)
- GFTFDGYAMH / GISTNSGSIGYADSVK / VGRGGGYFDY -> 14 nM (3 of 3 replicates)
- GVTFDHYAMH / GISWNSGSIGYADSVK / VGRGGGYFDG -> 4.6 nM (3 of 3 replicates)
- GFTFDAYAAH / GISWNSGSYGYADSVK / VGRGGGYFDY -> nd (0 of 3 replicates)
- GFTFDIYAMH / GISWNSGSIGYADSVC / VGRGGGYFDY -> nd (0 of 3 replicates)
- GFTFDNYAMH / DISWNSGSIGSADSVK / VGRGGGYFDY -> 51 µM (1 of 3 replicates)
- GFTFDLYAMH / GISWNSGSIGYADCVK / VIRGGGYFDY -> nd (0 of 3 replicates)
- GFTFDSYAMH / GISWNSISIGYADSVK / VGRGGGYFNY -> 1.5 µM (3 of 3 replicates)
- CFTFDCYAMH / GISWNSGSIGAADSVK / VGRGGGYFDY -> 6.2 µM (2 of 3 replicates)
- GFTFDQYAMH / GISWNSGSIGYADSVK / VGRGGGYFDK -> nd (0 of 3 replicates)
- GFCFDQYAMH / GISWNSGSIGNADSVK / VGRGGGYFDY -> nd (0 of 3 replicates)
- GFTFDPYAMH / GISWQSGSIGYAGSVK / VGRGGGYFDY -> nd (0 of 3 replicates)
- GFTFDCYAMH / GISWNSGSIGYADSVK / QMRGGGYFDY -> nd (0 of 3 replicates)
- GFTFDCYAMH / GISWNSGSIGYADSVK / VGRGGTYFDN -> 2.4 µM (2 of 3 replicates)
- GFTFDEYAMH / GISWNSGSIGYADSIK / VGRGGGVFDY -> 5.4 µM (3 of 3 replicates)
- GFTFDIYDMH / GISWNSGTIGYADSVK / VGRGGGYFDY -> 100 µM (2 of 3 replicates)
- GVTFDWYAMH / GISWSSGSIGYADSVK / VGRGGGYFDY -> 1.3 mM (1 of 3 replicates)
- HFTFDEYAMH / GISWNSGSIGYADSVK / VGRHGGYFDY -> nd (0 of 3 replicates)
- GFTFDGYAMH / GISWNSYSIGYADSVK / VGRGGGYFDY -> 12 µM (1 of 3 replicates)
- GFTFDNYAMH / GISWNSGSIGYAWSVK / VGRGGGYFDY -> 52 nM (3 of 3 replicates)
- GFTFDPDAMH / GISWNSGSIGYADSVK / VGRGGGYFMY -> 260 µM (1 of 3 replicates)
- GFTFDKYAMH / GISWNSGNIGYADSVK / VGRGGGYMDY -> 1.7 µM (3 of 3 replicates)
- GFTFDAYAMH / GIDWNSGSIGYADSVK / VGRGGGYFDY -> 19 nM (3 of 3 replicates)
- GFTFDMYAMH / GISWNSGSIGYADLDK / VGRGGGYFDY -> 60 µM (2 of 3 replicates)
- GFTFDWYAMH / GISWNSGSIGYADSVK / EGRGGGHFDY -> 1.7 nM (3 of 3 replicates)
- GFTFDIYAMH / GISWNDGSIGYADSVK / VGRGGGYFFY -> 550 nM (3 of 3 replicates)
- GFTFDRYAMH / GISWESGSIGYADSVK / VGRGDGYFDY -> 3.4 nM (3 of 3 replicates)
- GFTFDFYAMH / GISWNSGSIGYADSVK / SGRGGGYFDY -> 89 nM (3 of 3 replicates)
- GFTFDKYAMH / GISWNSGSIGYADSVK / VGRGGCYFDW -> 9.4 µM (2 of 3 replicates)
- GFTFDEYAMH / GMSWNSGWIGYADSVK / VGRGGGYFDY -> 2.3 µM (2 of 3 replicates)

A selection of 3 entries from above:

{"CDR-H1": "GFTFDQYAMH", "CDR-H2": "GISWNSGSIGYADSVK", "CDR-H3": "VGRGGGYFDK", "Kd (apparent)": "nd", "replicates with signal": "0/3"}
{"CDR-H1": "GFTGDSYAMD", "CDR-H2": "GISWNSGSIGYADSVK", "CDR-H3": "VGRGGGYFDY", "Kd (apparent)": "nd", "replicates with signal": "0/3"}
{"CDR-H1": "CFTFDCYAMH", "CDR-H2": "GISWNSGSIGAADSVK", "CDR-H3": "VGRGGGYFDY", "Kd (apparent)": "6.2 µM", "replicates with signal": "2/3"}

Reference: Engelhart et al. 2022, doi:10.1038/s41597-022-01779-4. File: FLAb, binding data.